# Tested on: H3K27me3 at Ink4a locus and EZH2 target genes in PDGFB NSCs
# Assay: ChIP-qPCR analysis of H3K27me3 enrichment (FIG. 2E, 2F)
# Conditions: FIG. 2F
smiles,measurement,value
CCN(c1cc(-c2ccc(CN3CCOCC3)cc2)cc(C(=O)NCc2c(C)cc(C)[nH]c2=O)c1C)C1CCOCC1 [EPZ6438],H3K27me3 on several EZH2 target genes by ChIP-qPCR,strongly reduced

# Source: patent US20180271857A1, “TREATMENT OF CANCER BY INHIBITING EZH2 ACTIVITY” (University of Copenhagen, priority 2014, published 2018)
